Protein sequences, listed by entry. Tags and fused reporters are not part of them.
UniProt P34913, whole entry: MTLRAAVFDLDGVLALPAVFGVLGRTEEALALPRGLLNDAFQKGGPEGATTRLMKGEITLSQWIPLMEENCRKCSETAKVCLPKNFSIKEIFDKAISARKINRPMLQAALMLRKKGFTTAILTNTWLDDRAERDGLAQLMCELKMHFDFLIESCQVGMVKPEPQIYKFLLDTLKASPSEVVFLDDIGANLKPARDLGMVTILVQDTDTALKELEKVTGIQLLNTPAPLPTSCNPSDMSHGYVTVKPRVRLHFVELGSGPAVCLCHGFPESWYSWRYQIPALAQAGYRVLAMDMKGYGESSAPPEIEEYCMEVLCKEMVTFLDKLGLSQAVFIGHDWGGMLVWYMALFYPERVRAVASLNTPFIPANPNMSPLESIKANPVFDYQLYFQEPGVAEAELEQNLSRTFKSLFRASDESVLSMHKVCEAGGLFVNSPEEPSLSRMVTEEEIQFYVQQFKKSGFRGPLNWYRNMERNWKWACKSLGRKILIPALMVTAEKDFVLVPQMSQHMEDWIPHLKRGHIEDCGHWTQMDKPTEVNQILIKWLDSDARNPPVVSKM

In publication PMC6148290, “Endogenous metabolites of vitamin E limit inflammation by targeting 5-lipoxygenase” (Nature Communications, 2018):

Target: T1, human recombinant soluble epoxide hydrolase (sEH) (Homo sapiens, UniProt P34913)
T1 construct: made in house; host or cells: Sf9 insect cells (recombinant baculovirus)
Assay: sEH activity
Format: biochemical

## AUDA [reference compound]
  suppression of sEH activity: 42.2 ± 1.9%
